Results reported in paper PMC10703426, “New characterization of dihydroergotamine receptor pharmacology in the context of migraine: utilization of a β-arrestin recruitment assay” (Frontiers in Neurology, 2023).

Tested on: 168 GPCRs
Experiment: gpcrMAX panel, antagonist mode, whole panel
Settings: 10 μM; >50% inhibition counted as significant

How did the “antagonist activity at any receptor tested” value turn out when `CNS(=O)(=O)Cc1ccc2[nH]cc(CCN(C)C)c2c1` [sumatriptan succinate] was run?
The value was “no antagonist activity”.
